The numbers were not newly measured in patent US20230104358A1 (priority 2021, published 2023), which cites them from elsewhere.

This data set relates to cholinergic muscarinic receptors.

Molecules are shown by their SMILES.

Consider `Cc1nc2n(c(=O)c1CCN1CCC(c3noc4cc(F)ccc34)CC1)CCCC2` [Risperidone], for which the “affinity for cholinergic muscarinic receptors” value is “no affinity”.
